# Reference: PubChem BioAssay AID2417 (National Center for Advancing Translational Sciences (NCATS), 2010)
# The entries are a selection whose mix differs from that of the whole data set. Inconclusive results are not listed. Calls of active or inactive are those of the source.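 The calls were made as follows: active = readout at or below -70, meaning at least 70% loss of cells showing the perinucleolar compartment, a nuclear body marking cancer cells; inconclusive = readout between -30 and a set limit; inactive = the rest.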
# Assay: High Content Assay for Compounds that inhibit the Assembly of the Perinucleolar Compartment;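 also: plate controls were DMSO wells for no effect and camptothecin positive control wells for full effect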
# Conditions: PC3M PTB-GFP, PNC prevalence imaging, 16 h; at 10 µM; hits give low values
# Source text: High Content Assay for Compounds that inhibit the Assembly of the Perinucleolar Compartment NIH Chemical Genomics Center [NCGC] NIH Molecular Libraries Probe Centers Network [MLPCN] MLPCN Grant: MH082371-01A2 Assay Submitter (PI): Sui Huang, Northwestern University, Feinberg School of Medicine, Cell and Molecular Biology, Chicago, Illinois. The perinucleolar compartment (PNC) is a non-membrane-bound nuclear subdomain that is associated with but structurally distinct from the nucleolus. The PNC is a heritable trait, in which the number of PNCs per cell in daughter cells often mimics that of their mother cells. The PNC is heterogeneous in shape, is stable through interphase, disassembles during mitosis, and reassembles in early G1. The PNC is concentrated with newly synthesized RNA polymerase III (pol III) RNAs (MRP RNA, RNAse P H1 RNA, hY RNAs[hY1, 2, 5], Alu RNA, and SRP [7SL] RNA) and RNA binding proteins (nucleolin, PTB, CUG-BP, KSRP, Raver1, Raver2, and Rod). […] Extensive in vitro studies have shown that the PNC is unique to tumor cells and preferentially forms in tumor cells derived from solid tissues. Examination of cancer cell lines from various origins and malignant capacities has shown that PNC prevalence correlates with the malignancy of tumors and has the potential to be developed as a pan-cancer prognostic marker. […] Although the PNC is associated with a DNA locus and a handful of components have been identified, much remains to be investigated regarding the structure and function of the PNC and its mechanistic link to cancer. We have previously shown that PNC prevalence reduction is a valid strategy to identify compounds that can be used to study the structure and function of the PNC. It is necessary, however, to create a screening platform that is able to test a large number of compounds in an automated fashion. Here we report the development and robustness of an automated whole-cell phenotypic image-based screening assay that is capable of identifying such compounds.
# PNC High Content Imaging Assay Procedure: 1. Cells at a density of 75-90% confluency in T175 flasks were harvested using 7 ml TrypLE Express cell dissociation reagent. After dissociation (5 minutes room temperature incubation) 10 ml of complete media was added to the TrypLE/cell suspension. The liquid was transferred to a 50 ml Conical tube and cells were pelleted at 1000 RPM for 5 min. Supernatant was removed and cells were resuspended to a final density of 150-200 cells/ul in complete media. 2. Cells were plated in 5 ul volume (750-1000 cells/well) into 1536 well Black uclear Aurora Low Base plates and allowed to recover and adhere at 37 C in a humidified 5% CO2 incubator for 4 hours. 3. After 4 hour incubation, compound libraries (23 nl of […] in columns 5-48) were transferred to the plates in duplicate using a 1536 well pintool. Camptothecin positive control (59 uM final) was added to column 2 and 1:3 dilutions of camptothecin was added to column 3. DMSO negative controls were present in columns 1 and 4. 4. After a 16 hour incubation in the 37 C incubator, cells were fixed by the addition of 4 ul of 6% EM grade paraformaldehyde (containing 0.1% triton X 100) directly to the cells. The plates were incubated at room temperature for 20 minutes. The liquid was removed using a 32 channel Kalypsys aspirator and the fixed cells were washed twice with 5 ul PBS followed by a final addition of 5 ul PBS containing 1 ug/ml Hoechst 33342. 5. Fixed plates were sealed and sotred at 4C until imaged. 6. Plates were imaged on an InCell 1000 automated microscope using a 20 x objective, a standard FITC filter set, no camera binning, and an exposure time of ~100-150 msec/well. 7. Data analysis. PNC prevalence was determined using the Multitarget analysis module from InCell Workstation software (V3.5 ) and analysis was run on a quad core workstation using the Incell Developer Toolbox (V1.7). […]
row,Structure (SMILES),"activity change (PNC), negative = inhibition"
1,c1ccc(CN2CCC(Nc3ccccc3)CC2)cc1,inactive: 40.1%
2,O=C(OC1CN2CCC1CC2)C1c2ccccc2C=Cc2ccccc21 (stereo not drawn),inactive: -20%
3,N/C(=N\O)c1c(N)no[n+]1[O-],inactive: -4.53%
4,CCC(CO)(C(=O)OC1CN2CCC1CC2)c1ccccc1 (stereo not drawn),inactive: 30.9%
5,CCOc1ncccc1C(=O)NCC1(N2CCOCC2)CCCCC1,inactive: -1.87%
6,CCN1CCC(Nc2cccc(F)c2)CC1,inactive: 17.3%
7,Fc1ccccc1NC1CCN(Cc2ccccc2)CC1,inactive: 16.7%
8,COc1ccc(NC2CCN(CCc3ccccc3)CC2)c(OC)c1,inactive: -23.5%
9,O=C(OC1CN2CCC1CC2)C1c2ccccc2Oc2ccccc21 (stereo not drawn),inactive: 23.1%
10,O=C(NCC1(N2CCOCC2)CCCCC1)c1cc2ccccc2o1,inactive: 13.1%
11,O=C(NCC1(N2CCOCC2)CCCCC1)c1cc(=O)[nH]c2ccccc12,inactive: 8.49%
12,CN1CCN(CCOC(=O)C(O)(c2ccccc2)c2ccccc2)CC1,inactive: -14.5%
13,N#CC1(Nc2ccccc2)CCN(CCc2ccccc2)CC1,inactive: -25.8%
